From PMC8833187 (Proceedings of the National Academy of Sciences of the …, 2022) come the findings set out here.

In experiment [1] the target is CaM/4Ca^2+ (Homo sapiens, UniProt P0DP23). The experiment is classed as binding. The conditions noted are these: ssNMR, optimized value (5–95% confidence limits).
In experiment [2] the target is CaM/4Ca^2+ (A17C–R1, A128C–R1) (Homo sapiens, UniProt P0DP23, A129C/S18C). The experiment is classed as binding. The settings on record: DEER EPR.

In the case of KRRWKKNFIAVSAANRFKKISSSGAL [M13], the kAC in experiment [1] (state A to final complex C) is given as 1.7 × 10^3 (1.2 × 10^3–2.3 × 10^3) s^−1; in experiment [2] (state A to final complex C, only lower limit can be determined) it was ≥4 × 10^3 ^* s^−1. Moreover, the “kA*B” value was 410 (310–540) s^−1 in experiment [1] (state A* to intermediate B) and 660 (570–760) s^−1 in experiment [2] (state A* to intermediate B, optimized value (5–95% confidence limits)). Also, the kBC is on record as 55 (37–81) s^−1 in experiment [1] (state B to final complex C) and 155 (110–215) s^−1 in experiment [2] (state B to final complex C, optimized value (5–95% confidence limits)).
